miR-21 reporter: raises the signal of a miR-21 reporter | HeLa miR-21 FLuc reporter, luciferase, 48 h | Potency, µM (highest dose often 38.3 µM), inactives show at the highest dose reporter change, positive = more light | 340,000 tested, under 10 active | AID 2288; active = well fitted rising curve with a large enough effect; inconclusive = small, poorly fitted or top-dose-only effect; inactive = no such curve, though single readings can be large or run the other way;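 note: % of control where 0% means no effect; miR-21 action dims this reporter so a rising signal means less miR-21 action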
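Luminescence from a firefly luciferase reporter carrying a miR-21 binding site downstream, stably expressed under a CMV promoter in HeLa cells that make miR-21 endogenously, reports miRNA modulation after 48 h compound exposure up to approximately 40uM final.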
Lamin A splicing: LMNA splicing modulation | HeLa LMNA splicing GFP/RFP minigene ratio, 48 h | Potency, µM (series often up to 46.1 µM), without a hit: top-dose ratio change, negative = inhibition, most hits filed as inhibitors | 200,000 tested, 0.01% active; active means well fitted inhibition curve with a large enough effect in the signal ratio, with a control signal flat, not every such curve was filed as active; inconclusive means small, poorly fitted or top-dose-only effect, or effect the other way, or a change in a side signal; the % refers to the signal ratio; further: potency means the concentration at half of the fitted maximal effect; on the % scale 0 is the no-effect control and ±100 the full control effect
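S3 HeLa cells stably expressing lamin A-EGFP splicing minigene plus DsRed2, 600 cells/well, 48 h compound exposure at 37C. Laser-scanning cytometry; analysed as GFP (500-530 nm)/RFP (575-640 nm) total intensity ratio; 0.5% DMSO vehicle.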
JMJD2E inh: blocks human JMJD2E demethylase activity. B2RXH2. JMJD2E catalytic domain, FDH-coupled NADH fluorescence (FDH is formaldehyde dehydrogenase). Potency, µM (series often up to 57.1 µM), for inactives: top-dose activity change, negative = inhibition, usual class: inhibitors. 230,000 tested, 1.6% active. AID 2147; active means well fitted inhibition curve with a large enough effect, not every such curve was filed as active; inconclusive means small, poorly fitted or top-dose-only effect, or another doubt; inactive means no such curve, though single readings can be large or run the other way;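 further: potency means the concentration at half of the fitted maximal effect; 0% = wells with enzyme and -100% = buffer wells without enzyme; nearly all actives have a fitted effect of over 50% in size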
ALDH1A1 inh: blocks purified human ALDH1A1 activity; P00352; Purified ALDH1A1, NADH fluorescence, propionaldehyde substrate; Potency, µM (series often up to 75.3 µM), inactives show at the highest dose activity, negative = inhibition, actives largely listed as inhibitors; 220,000 tested, 7.3% active; active means well fitted inhibition curve with a large enough effect, not every such curve was filed as active; inconclusive means small, poorly fitted or top-dose-only effect, or another doubt; inactive means no such curve, though single readings can be large or run the other way;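 further: potency means the concentration at half of the fitted maximal effect; plate controls were no enzyme wells and a reference inhibitor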
G9a inh: G9a (human) methyltransferase inhibition | G9a H3K9 monomethylation, AlphaScreen, 2 h | 350,000 tested, 8.8% active | Potency, µM (doses to about 102 µM), without a hit: at the top dose activity, negative = inhibition, hits mostly inhibitors; further: potency means the concentration at half of the fitted maximal effect; on the % scale 0 is the no-effect control and ±100 the full control effect; nearly all actives have a fitted effect of over 75% in size
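AlphaScreen read-out: biotin-H3K9 peptide (500 nM) methylation by 20 nM enzyme with 20 uM SAM, 2 h at room temperature after 15 min compound preincubation; anti-monomethyl H3K9 antibody plus donor/acceptor beads, 10 min dark.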
Sfp inh: inhibitors of Bacillus subtilis Sfp phosphopantetheinyl transferase | Q9F4F7 | Biochemical Sfp PPTase activity, qHTS | Potency, µM, inactives show max response, negative = inhibition, most hits filed as inhibitors | 310,000 tested, 3.5% active | AID 1490; active = well fitted inhibition curve with a large enough effect; inconclusive = small, poorly fitted or top-dose-only effect, or another doubt; inactive = no such curve, though single readings can be large or run the other way;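 note: the enzyme is Sfp with the accession as filed and its product quenches rhodamine fluorescence; potency is the fitted concentration of half-maximal effect; 0% = enzyme reaction without inhibitor and -100% = no enzyme wells; top concentration of the series not given in the record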
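Buffer: 50 mM Hepes-Na pH 7.6, 10 mM MgCl2, 0.01% Nonidet P-40, 0.01% BSA. Enzyme 15 nM, pre-exposed to compound 15 min; substrates then added and fluorescence change tracked over 30 min.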
* hit, by the source's call; ? = inconclusive; . = no result given; [ ] = another dose, or the depositor's remark. Most compounds without a hit are left out; they make up all but 13% or so of the library. Unless noted, the call rests on the fitted dose curve; in most records, active means well fitted curve in the direction sought with a large enough effect; inconclusive means small, poorly fitted or top-dose-only effect, or another doubt; inactive means no such curve, though single readings can be large; an effect the other way counts as inactive or inconclusive.

| entry | miR-21 reporter | Lamin A splicing | JMJD2E inh | ALDH1A1 inh | G9a inh | Sfp inh | Compound |
| --- | --- | --- | --- | --- | --- | --- | --- |
| 1 | -2% | . | . | . | 40µM* | -12% | COc1cc(OC)c(OC)cc1/C=C1\CCC/C(=C\c2cc(OC)c(OC)cc2OC)C1=O |
| 2 | -7% | . | 3% | . | 0.35µM* | 79µM* | CCOC(=O)c1c(C)n(C)c2cc(Br)c(O)c(O)c12 |
| 3 | -8% | -3% | -23% | ? | ? | 35µM* | CCOC(=O)c1c(NC(C)=O)sc2c(O)c(Br)cc(Br)c12 |
| 4 | -5% | 6% | 0% | -10% | 12% | 10% | CCOC(=O)COc1cc2c(C(=O)OCC)c(C)oc2cc1Br |
| 5 | -36% | -3% | -1% | 5% | 6.3µM* | -1% | CCOC(=O)c1c(C)oc2cc(Br)c(O)c(Br)c12 |
| 6 | -7% | . | . | . | 152%[59 µM] | . | CCN(C(=O)c1cc2c(s1)-c1ccccc1OC2)c1cccc(C(F)(F)F)c1 |
| 7 | -38% | . | -2% | . | 8% | 7% | C(=C\c1ccccn1)/c1cccnc1 |
| 8 | 25% | ? | -1% | 8% | ? | -8% | CC1=NN(c2ccccc2)C(=O)C1C(=O)c1ccccc1 (stereo not given) |
| 9 | -49% | . | ? | ? | 35µM* | -5% | CC1=NN(c2ccccc2)C(=O)C1C(=O)C(=O)Nc1ccc(F)cc1 (stereo not given) |
| 10 | 27% | -10% | -8% | -3% | 40µM* | 11% | CC1=NN(c2ccccc2)C(=O)C1C(=O)c1ccc(Cl)cc1 (stereo not given) |
| 11 | 2% | . | . | . | 5%[0.501 µM] | 1% | COc1ccc(OC)c(N(CC(=O)NCCSCc2ccc(C)cc2)S(C)(=O)=O)c1 |
| 12 | 0% | . | . | . | 11%[59 µM] | . | COc1ccc(OC)c(-c2csc(-c3c(N)c(C(=O)c4ccc(Cl)cc4)n4ccccc34)n2)c1 |
| 13 | -7% | . | . | . | ? | ? | O=[N+]([O-])c1cc([N+](=O)[O-])c2nonc2c1Nc1ccccc1O |
| 14 | -4% | . | . | . | 11µM* | ? | O=[N+]([O-])c1cc([N+](=O)[O-])c2nonc2c1Nc1ccc(O)cc1 |
| 15 | -3% | . | . | . | ? | -15% | CN(C)CCn1c(SCc2ccccc2C#N)nc2c(sc3ccccc32)c1=O |
| 16 | 6% | . | . | . | 3.2µM* | . | COc1cc2ccccc2cc1C(=O)Nc1cccc(-c2nc3cc(C)c(C)cc3o2)c1C |
| 17 | 2% | . | ? | -4% | -42% | ? | CCOC(=O)c1oc2ccccc2c1CN1CCCCC1 |
| 18 | -2% | 10% | -2% | 6.3µM* | 19%[2.33 µM] | 14% | CCOC(=O)c1oc2ccccc2c1CSc1nnnn1-c1ccccc1 |
| 19 | 0% | 6% | 0% | ? | 6% | 10% | CCOC(=O)c1sc(NC(=O)CSc2nnnn2-c2ccccc2)nc1C |
| 20 | -7% | 6% | -3% | 11µM* | ? | 14% | CCOC(=O)c1oc2ccccc2c1CN1CCOCC1 |
| 21 | -3% | . | . | . | 10µM* | -17% | CCOC(=O)C(C)N1C(=O)S/C(=C\c2ccc(-c3ccccc3C(=O)O)o2)C1=O (stereo not given) |
| 22 | -1% | 9%[46 µM] | -28% | ? | 2.2µM* | -21% | Cc1ccc(C)c(N2C(=N)S/C(=C\c3ccc(-c4ccccc4C(=O)O)o3)C2=O)c1 |
| 23 | . | . | . | 4% | -3%[12.7 µM] | 14% | COc1ccc(NC(=O)N2CCCC3(CCN(C(=O)c4cnccn4)CC3)C2)cc1 |
| 24 | 0% | . | . | . | 45µM* | -18% | CC1CCCN(C(=O)/C(=C/c2ccco2)NC(=O)c2ccccc2)C1 (stereo not given) |
| 25 | -4% | -17% | ? | 6% | 38%[12.7 µM] | 4% | O=C(N/N=C/c1ccc2c(c1)OCO2)/C(=C/c1ccc2c(c1)OCO2)NC(=O)c1ccccc1 |

The last 6 compounds of the part above are carried over, then new ones follow:
| entry | miR-21 reporter | Lamin A splicing | JMJD2E inh | ALDH1A1 inh | G9a inh | Sfp inh | Compound |
| --- | --- | --- | --- | --- | --- | --- | --- |
| 20 | -7% | 6% | -3% | 11µM* | ? | 14% | CCOC(=O)c1oc2ccccc2c1CN1CCOCC1 |
| 21 | -3% | . | . | . | 10µM* | -17% | CCOC(=O)C(C)N1C(=O)S/C(=C\c2ccc(-c3ccccc3C(=O)O)o2)C1=O (stereo not given) |
| 22 | -1% | 9%[46 µM] | -28% | ? | 2.2µM* | -21% | Cc1ccc(C)c(N2C(=N)S/C(=C\c3ccc(-c4ccccc4C(=O)O)o3)C2=O)c1 |
| 23 | . | . | . | 4% | -3%[12.7 µM] | 14% | COc1ccc(NC(=O)N2CCCC3(CCN(C(=O)c4cnccn4)CC3)C2)cc1 |
| 24 | 0% | . | . | . | 45µM* | -18% | CC1CCCN(C(=O)/C(=C/c2ccco2)NC(=O)c2ccccc2)C1 (stereo not given) |
| 25 | -4% | -17% | ? | 6% | 38%[12.7 µM] | 4% | O=C(N/N=C/c1ccc2c(c1)OCO2)/C(=C/c1ccc2c(c1)OCO2)NC(=O)c1ccccc1 |
| 26 | -4% | . | . | . | 10µM* | 17% | CN(C)c1ccc(/C=C(/NC(=O)c2ccccc2)C(=O)N2CCCC2)cc1 |
| 27 | -19% | -6% | 1% | 4µM* | ? | -8% | CN(C)c1ccc(/C=C(/NC(=O)c2ccccc2)C(=O)N/N=C/c2ccc([N+](=O)[O-])c(O)c2)cc1 |
| 28 | -9% | . | . | . | 50µM* | 10% | CC1CCN(C(=O)/C(=C\c2ccco2)NC(=O)c2ccccc2)CC1 |
| 29 | -1% | . | . | . | -21%[59 µM] | . | CC(C)CC(=O)Nc1nc2c(s1)CC(C(C)(C)C)CC2 (stereo not given) |
| 30 | -11% | -7% | 4% | 3% | -8% | -21% | CC1(C)CC(=O)C2=C(C1)OC(N)=C(C#N)C2c1cc2c(cc1[N+](=O)[O-])OCO2 (stereo not given) |
| 31 | -1% | . | . | . | 18µM* | 56µM* | Cc1ccc(C(=O)N/C(=C/c2ccco2)C(=O)N2CCC(C)CC2)cc1 |
| 32 | -1% | . | . | . | 16µM* | -11% | O=C(N/C(=C\c1ccco1)C(=O)N1CCCC1CO)c1ccccc1 (stereo not given) |
| 33 | -5% | . | . | . | 40µM* | 50µM* | Cc1cccc(C(=O)N/C(=C/c2ccco2)C(=O)N2CCCCCC2)c1 |
| 34 | -2% | -6% | 1% | 6% | 17%[59 µM] | 8% | Cc1ccc(C(=O)N/C(=C/c2ccco2)C(=O)O)cc1 |
| 35 | . | . | . | . | 0% | . | CCN(CC(=O)Nc1c(F)cccc1F)C(=O)c1ccc(C)c(S(=O)(=O)N2CCCCC2)c1 |
| 36 | -6% | . | . | . | 10%[59 µM] | . | CCOC(=O)C1CCN(C(=O)C2CCN(c3nnc(C)c4c(C)n(-c5ccccc5)nc34)CC2)CC1 |
| 37 | 10% | ? | -20% | -6% | 12% | 12% | COc1ccc(-c2nc(-c3ccc(NC(=O)c4ccncc4)cc3)no2)cc1OC |
| 38 | . | ? | -2% | -12% | 25µM* | 32µM* | COc1ccc(NC(=O)c2ccc(-c3ccc(-c4noc(C)n4)cc3C)cc2)cc1N1CCN(C)CC1 |
| 39 | . | . | ? | -7% | 16µM* | 79µM* | COc1ccc(NC(=O)c2ccc(-c3ccc(-c4noc(C)n4)cc3C)cc2)cc1OCCN(C)C |
| 40 | -1% | . | ? | ? | . | 22µM* | O=C(/C=C/c1ccco1)Nc1nc(-c2ccc(F)c(F)c2)cs1 |
| 41 | 5% | ? | -18% | 1% | . | 21% | O=C(/C=C/c1ccccc1)Nc1scc(-c2ccccc2)c1C(=O)O |
| 42 | -9% | -7% | -5% | -2% | 20µM* | -26% | Cc1csc(NC(=O)/C=C/c2ccco2)n1 |
| 43 | -64% | -6% | -30% | ? | ? | ? | Cc1csc(NC(=O)/C=C/c2ccc(C)o2)n1 |
| 44 | 19% | . | ? | . | -12% | 11% | CCOC(=O)Cc1csc(NC(=O)/C=C/c2ccc(Cl)cc2)n1 |
| 45 | -6% | . | ? | . | 50µM* | 71µM* | CCOC(=O)Cc1csc(NC(=O)/C=C/c2ccco2)n1 |
| 46 | 6% | . | 8% | . | 50µM* | -56% | O=C(/C=C/c1ccco1)Nc1scc(-c2ccccc2)c1C(=O)O |
| 47 | -10% | . | . | . | 6% | -8% | CCOC(=O)NN=C1CN(S(=O)(=O)c2ccc(C)cc2)C1 |
| 48 | -3% | -16% | -7% | ? | ? | 32µM* | Cc1sc(NC(=O)/C=C/c2ccco2)c(C(=O)OC(C)C)c1C |

Bioassay records as filed in PubChem BioAssay.
